PubChem BioAssay AID504775 (Broad Institute, 2011)
The list shows a part of the results, in another mix than the full data. Some salts and complexes are drawn in separate pieces, as the source files them; their charges need not balance. The source made the active and inactive calls.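 Rule for the calls: active = mean replicate activation of at least 60% and every replicate at or above 60%; inconclusive = mean or all-replicate condition met, but not both; inactive = mean below 60% and not all replicates reaching 60%.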

experiment: enhancers of HDL lipid transfer via mSR-BI – ldlA[mSR-BI] CHO cells, DiI fluorescence, primary screen (AID 504775); settings: DiI-HDL uptake fluorescence, 3 h, at 12.5 µM, active compounds read high, 100 = double the neutral-control signal;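 note: 0% = median plate neutral-control signal and 100% = twice that signal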
Method in brief: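 material = CHO ldlA[mSR-BI] cells | medium = Ham's F12 with 0.5% BSA, HEPES 25 mM, pH 7.4 | reagent = fluorescent DiI-HDL, 10 µg/mL final | compound dosing = single-point compound dose | incubation = 3 h, 37 °C | measured by = bottom-read fluorescence, 550/595 nm | measure = HDL uptake via cellular fluorescence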

Structure (SMILES)	activation
O=[N+]([O-])c1cc([N+](=O)[O-])c(Nc2cccnc2)c([N+](=O)[O-])c1	inactive: 23.5%
CC(C)(C)c1ccc(OP(C)(=O)Nc2ccc(SC(F)(F)F)cc2)cc1 (centres undefined)	inactive: -14.6%
Cc1cccc(C)c1OP(C)(N)=O (centres undefined)	inactive: 19.3%
O=[N+]([O-])c1ccc2c(c1)C=Nc1ccccc1O2	inactive: -3.46%
CCOC(=O)c1ccc(NP(C)(=O)Oc2ccccc2)cc1 (centres undefined)	inactive: 16.8%
COc1ccccc1OP(C)(=O)Nc1ccc(C)cc1 (centres undefined)	inactive: 22.8%
Cc1ccc(NP(C)(=O)Oc2ccccc2)c(C)c1 (centres undefined)	inactive: -4.88%
COc1ccccc1OP(C)(=O)Nc1cc(Cl)ccc1C (centres undefined)	inactive: -28.8%
COc1ccc(OP(C)(=O)Nc2cccc(F)c2)cc1 (centres undefined)	inactive: -2.58%
Cc1cc(C)cc(OP(C)(N)=O)c1 (centres undefined)	inactive: 31.1%
CCN(CC)CCCOC(=O)C(O)(c1ccccc1)c1ccccc1	inactive: -1.84%
Cc1cccc(C)c1OP(C)(=O)Nc1ccc(SC(F)(F)F)cc1 (centres undefined)	inactive: -15.2%
CP(=O)(Oc1ccccc1)OC(c1ccccc1)C(F)(F)F (centres undefined)	inactive: 23.4%
CP(=O)(NC(=O)Nc1ccccc1)Oc1ccccc1 (centres undefined)	inactive: 31%
Cc1cc(C)cc(OP(C)(=O)Nc2ccc(SC(F)(F)F)cc2)c1 (centres undefined)	inactive: 15.3%
CCOP(C)(=S)SCC(=O)NC(C)C(=O)O (centres undefined)	inactive: 11.2%
CCOC(=O)c1ccc(NP(C)(=O)Oc2ccc(OC)cc2)cc1 (centres undefined)	inactive: -15.4%
CP(=O)(Nc1ccccn1)Oc1ccc(Cl)cc1 (centres undefined)	inactive: 15.7%
CP(=S)(Nn1cnnc1)Oc1ccccc1 (centres undefined)	inactive: 11.6%
COc1ccccc1OP(C)(=O)Nc1ccccc1 (centres undefined)	inactive: 3.69%
CC1=C2N=C(C=C3N=C(C(C)=C4[N-][C@@](C)([C@@H]5N=C1[C@](C)(CCC(=O)NC[C@@H](C)OP(=O)([O-])O[C@H]1[C@@H](O)[C@@H](n6cnc7cc(C)c(C)cc76)O[C@@H]1CO)[C@H]5CC(N)=O)[C@@](C)(CC(N)=O)[C@@H]4CCC(N)=O)[C@@](C)(CC(N)=O)[C@@H]3CCC(N)=O)C(C)(C)[C@@H]2CCC(N)=O.[C-]#N.[Co+3]	inactive: 3.45%

Structure (SMILES)	activation
O=[N+]([O-])c1cc([N+](=O)[O-])c(Nc2nnnn2CCO)c([N+](=O)[O-])c1	inactive: 7.74%
CCOC(=O)C(CC)C1=NC(C)(C)Cc2ccccc21.O=[N+]([O-])c1cc([N+](=O)[O-])c(O)c([N+](=O)[O-])c1 (centres undefined)	inactive: -1.44%
COc1ccccc1OP(C)(=O)Nc1c(C)cccc1C (centres undefined)	inactive: 12.9%
CN1CCCCC1COC(=O)C1(O)c2ccccc2CCc2ccccc21 (centres undefined)	inactive: -3.92%
CCCOc1ccc(NP(C)(=O)Oc2ccc(Cl)cc2)cc1 (centres undefined)	inactive: -6.06%
CP(=O)(Nc1ccc(SC(F)(F)F)cc1)Oc1ccccc1 (centres undefined)	inactive: 4.62%
O=[N+]([O-])c1cc([N+](=O)[O-])c(-n2nnc3ccccc32)c([N+](=O)[O-])c1	inactive: 12.8%
O=[N+]([O-])c1cc([N+](=O)[O-])c(-c2cnn(-c3ccccc3)c2)c([N+](=O)[O-])c1	inactive: -31.8%
Cc1nc2ccc3ccccc3c2s1.O=[N+]([O-])c1cc([N+](=O)[O-])c(O)c([N+](=O)[O-])c1	inactive: -10.9%
COc1ccccc1OP(C)(=O)Nc1cccc(Br)c1 (centres undefined)	inactive: 8.69%
Cc1cc(C)cc(OP(C)(=O)Nc2ccc(C)cc2C)c1 (centres undefined)	inactive: -27.2%
CCOC(=O)c1ccc(NP(C)(=O)Oc2cc(C)cc(C)c2)cc1 (centres undefined)	inactive: -6.86%
Cc1cc(C)cc(OP(C)(=O)Nc2ccccn2)c1 (centres undefined)	inactive: 8.53%
CP(=O)(Nc1cccc(Br)c1)Oc1ccccc1 (centres undefined)	inactive: -1.13%
Cc1ccc(C)c(NP(C)(=O)Oc2ccccc2)c1 (centres undefined)	inactive: 9.76%
COc1ccc(OP(C)(=O)Nc2ccc(SC(F)(F)F)cc2)cc1 (centres undefined)	inactive: 43.4%
CCOC(=O)c1ccc(NP(C)(=O)Oc2ccc(F)cc2)cc1 (centres undefined)	inactive: -2.22%
CCN(CC)CCCOC(=O)C(O)(c1ccccc1)C1CCCCC1 (centres undefined)	inactive: 23.1%
Cc1c([N+](=O)[O-])cc([N+](=O)[O-])c(Br)c1[N+](=O)[O-]	inactive: -12.9%
O=[N+]([O-])c1cc([N+](=O)[O-])c(OC2CCCCC2O)c([N+](=O)[O-])c1 (centres undefined)	inactive: -1.94%
CCCCCOc1ccc(NP(C)(=O)Oc2ccc(Cl)cc2Cl)cc1 (centres undefined)	inactive: 21.1%

Structure (SMILES)	activation
CP(=O)(Nc1ccccc1)Oc1ccc(F)cc1 (centres undefined)	inactive: 17%
CC(C)c1ccc(OP(C)(=O)Nc2ccc(SC(F)(F)F)cc2)cc1 (centres undefined)	inactive: 2.21%
CP(=O)(Nc1ccccc1F)Oc1ccccc1 (centres undefined)	inactive: 9.12%
O=C(OCCN1CCN(CCOCc2ccccc2)CC1)C(O)(c1ccccc1)c1ccccc1	inactive: 0.742%
O=C(OC1CN2CCC1CC2)c1ccc([N+](=O)[O-])cc1 (centres undefined)	inactive: 6.48%
COc1ccc2c(c1O)-c1c(O)c(OC)cc3c1[C@H](C2)[N+](C)(C)CC3.O=[N+]([O-])c1cc([N+](=O)[O-])c([O-])c([N+](=O)[O-])c1[O-]	inactive: 13.3%
CP(=O)(Nc1ccc(SC(F)(F)F)cc1)Oc1ccc(F)cc1 (centres undefined)	inactive: 2.3%
CCOP(C)(=S)SCC(=O)NC(C)(CC)C(=O)O (centres undefined)	inactive: 0.118%
CP(=O)(Nc1ccc2c(c1)OCCO2)Oc1ccccc1 (centres undefined)	inactive: 23.5%
Cc1ccccc1NP(C)(=O)Nc1ccccc1C	inactive: 17.7%
COc1ccc(OP(C)(=O)Nc2cccc(Br)c2)cc1 (centres undefined)	inactive: 2.34%
COc1ccc(NP(C)(=O)Oc2ccccc2OC)cc1 (centres undefined)	inactive: -15%
CN(C)CCOC(=O)C(O)(c1ccccc1)C1CCCCC1 (centres undefined)	inactive: -9.97%
O=[N+]([O-])c1cc([N+](=O)[O-])c(NCC2CCS(=O)(=O)C2)c([N+](=O)[O-])c1 (centres undefined)	inactive: 31.9%
Cc1cc(-c2cccc3ccccc23)c(C)cn1.O=[N+]([O-])c1cc([N+](=O)[O-])c(O)c([N+](=O)[O-])c1	inactive: -13.1%
O=[N+]([O-])c1ccc(OP2(=O)COCCO2)cc1 (centres undefined)	inactive: 0.356%
CP(=O)(OC12CC3CC(CC(C3)C1)C2)OC12CC3CC(CC(C3)C1)C2	inactive: 11.4%
CCOC(=O)c1ccc(NP(C)(=O)Oc2ccc(Cl)cc2)cc1 (centres undefined)	inactive: 12.8%
CCN(CC)CC(O)COC(=O)C(O)(c1ccccc1)C1CCCCC1 (centres undefined)	inactive: -0.453%
CP(=O)(Oc1ccccc1)N1CCOC1=O (centres undefined)	inactive: 47.3%
CCc1ccc(OP(C)(=O)Nc2cccnc2)cc1 (centres undefined)	inactive: 12%

Structure (SMILES)	activation
COc1ccccc1OP(C)(=O)Nc1c(C)n(C)n(-c2ccccc2)c1=O (centres undefined)	inactive: 18.3%
O=C(OCCCN1CCCC1)C(O)(c1ccccc1)C1CCCCC1 (centres undefined)	inactive: 18%
CP(=O)(Nc1ccc(Cl)cc1)Oc1ccc(F)cc1 (centres undefined)	inactive: 2.18%
COc1ccccc1OP(C)(=O)Nc1ccccc1Br (centres undefined)	inactive: -21.9%
CC(C)(C)c1ccc(OP(C)(=O)O)cc1	inactive: 23.2%
CN(C)C(=O)c1c([N+](=O)[O-])cc([N+](=O)[O-])cc1[N+](=O)[O-]	inactive: 2.13%
COc1ccccc1OP(C)(=O)Nc1ccc(Br)cc1 (centres undefined)	inactive: -3.82%
CN(C)CCOC(=O)C(O)(c1ccccc1)C1CCCC1 (centres undefined)	inactive: 30.6%
COc1ccc(OP(C)(=O)Nc2ccccn2)cc1 (centres undefined)	inactive: 20%
Cc1c(NP(C)(=O)Oc2ccc(C(C)C)cc2)c(=O)n(-c2ccccc2)n1C (centres undefined)	inactive: -6.12%
O=[N+]([O-])c1cc([N+](=O)[O-])c(Nc2ccccn2)c([N+](=O)[O-])c1	inactive: -1.34%
CCc1ccc(OP(C)(=O)O)cc1	inactive: 28.6%
CP(=O)(Nc1ccccn1)Oc1ccccc1 (centres undefined)	inactive: 8.89%
COc1ccccc1OP(C)(=O)Nc1ccc(C)cc1C (centres undefined)	inactive: -16.1%
O=C1C(O)=C([N+](=O)[O-])C(=O)C(O)=C1[N+](=O)[O-]	inactive: 4.37%
Cc1cc(C)cc(OP(C)(=O)Nc2cccc(C(F)(F)F)c2)c1 (centres undefined)	inactive: -1.76%
COc1ccc(OP(C)(=O)Nc2ccccc2Br)cc1 (centres undefined)	inactive: -16.4%
COc1ccccc1OP(C)(=O)Nc1ccc(C)c(C)c1 (centres undefined)	inactive: -28.4%
CP(=O)(Nc1ccc(Cl)cc1Cl)Oc1ccccc1 (centres undefined)	inactive: -13%
CCCCCCCCCCCCCCCC1C[N+](C)(C)CCOP(C)(=O)O1 (centres undefined)	inactive: -15.4%
CP(=O)(OCCOc1ccccc1)OCCOc1ccccc1	inactive: -17.3%
